From PubChem BioAssay (EPA / NIEHS)
This is a selection; strong and weak results do not stand in their true shares. Active and inactive are the calls of the source. Rule for the calls: active = hit-call score of the fitted dose curve at least 0.9, where 1 is the maximum; inactive = score below 0.9.

assay: ATG_AP_1_CIS: Attagene CIS-FACTORIAL HepG2 Assay for human Activator Protein 1 (AP-1) (AID 2282931); settings: HepG2 Attagene cis-factorial AP-1 reporter mRNA; actives raise or lower the signal
Experimental: ATG_CIS is a cell-based, multiplexed-readout assay that uses HepG2, a human liver cell line, with measurements taken at 24 hours after chemical dosing in a 24-well plate.ATG_AP_1_CIS is one of 52 assay component(s) measured or calculated from the ATG_CIS assay. It is designed to make measurements of mRNA induction, a form of inducible reporter, as detected with fluorescence intensity signals by Reverse transcription polymerase chain reaction (RT-PCR) and Capillary electrophoresis technology.Data from the assay component ATG_AP_1_CIS was analyzed into 1 assay endpoint. This assay endpoint, ATG_AP_1_CIS, was analyzed with bidirectional fitting relative to DMSO as the negative control and baseline of activity. Using a type of inducible reporter, measures of mRNA for gain or loss-of-signal activity can be used to understand the reporter gene at the transcription factor-level as they relate to the gene FOS and JUN. Furthermore, this assay endpoint can be referred to as a primary readout, because this assay has produced multiple assay endpoints where this one serves a reporter gene function. To generalize the intended target to other relatable targets, this assay endpoint is annotated to the dna binding intended target family, where the subfamily is basic leucine zipper.
Human liver HepG2 cells are transiently transfected with multiple reporter transcription units (MRTUs) in 6-well plates using FuGene 6 reagent (Roche; 3 ml FuGene/1 mg DNA). The MRTU constructs are regulated by a cis-regulating element (promoter). […] A major difference between the CIS and TRANS system is that in CIS activities of endogenous TFs are measured, whereas the TRANS assay evaluates changes in activities of exogenous, chimeric NR-Gal4 proteins. […] At the end of 24 hour incubation, total RNA was isolated using TriZol reagent (Invitrogen). The isolated RNA is then reverse-transcribed using oligo(dT) primer and Mo-MLV reverse transcriptase (Invitrogen) with DNAse I (Ambion) treatment for 30 min. The one-tenth of the produced cDNA was amplified by PCR using Taq DNA polymerase (Invitrogen) and two reporter sequence-specific primers. The PCR products were fluorescently labeled by primer extension with 6-arboxyfluorescein (6-FAM) 5'-labeled reporter sequence-specific primer (2 min at 95 C, 20 s at 68 C and 10 min at 72 C) and these products were digested with 5U of HpaI (New England Biolabs) for 2h at 37 C. The fragments were purified using Qiaquick PCR columns (Qiagen), analyzed on an ABI 3130xL genetic analyzer (Applied Biosystems) with peak positions identified by using a set of X-rhodamine (ROX)-labeled MapMarker1000 molecular weight standards (BioVentures). The raw capillary electrophoresis data was processed using Attagraph software (Attagene).

Row | SMILES | outcome | AC50
1 | COc1ccc([N+](=O)[O-])cc1[N+](=O)[O-] | inactive | 
2 | COP(C)(=O)OC | inactive | 
3 | Cc1c([N+](=O)[O-])cccc1[N+](=O)[O-] | inactive | 
4 | O=[N+]([O-])c1cccc([N+](=O)[O-])c1 | inactive | 
5 | CN(C)CCCl | inactive | 
6 | Cc1ccc([N+](=O)[O-])cc1[N+](=O)[O-] | inactive | 
7 | N#CBr | inactive | 
8 | CC(C)OP(C)(=O)OC(C)C | inactive | 
9 | CC(C)N(CCO)C(C)C | inactive | 
10 | O=[N+]([O-])OCC(CO[N+](=O)[O-])(CO[N+](=O)[O-])CO[N+](=O)[O-] | inactive | 
11 | Cc1ccc([N+](=O)[O-])c([N+](=O)[O-])c1 |  | active: 26.9 µM
